Here are results for one compound from patent US20110269811A1, “INHIBITORS OF SEMICARBAZIDE-SENSITIVE AMINE OXIDASE (SSAO) AND VAP-1 MEDIATED ADHESION USEFUL FOR TREATMENT AND PREVENTION OF DISEASES” (priority 2006, published 2011).

Sequences of proteins named here, by UniProt entry; tags and fusion partners are left off.
UniProt Q16853, whole entry: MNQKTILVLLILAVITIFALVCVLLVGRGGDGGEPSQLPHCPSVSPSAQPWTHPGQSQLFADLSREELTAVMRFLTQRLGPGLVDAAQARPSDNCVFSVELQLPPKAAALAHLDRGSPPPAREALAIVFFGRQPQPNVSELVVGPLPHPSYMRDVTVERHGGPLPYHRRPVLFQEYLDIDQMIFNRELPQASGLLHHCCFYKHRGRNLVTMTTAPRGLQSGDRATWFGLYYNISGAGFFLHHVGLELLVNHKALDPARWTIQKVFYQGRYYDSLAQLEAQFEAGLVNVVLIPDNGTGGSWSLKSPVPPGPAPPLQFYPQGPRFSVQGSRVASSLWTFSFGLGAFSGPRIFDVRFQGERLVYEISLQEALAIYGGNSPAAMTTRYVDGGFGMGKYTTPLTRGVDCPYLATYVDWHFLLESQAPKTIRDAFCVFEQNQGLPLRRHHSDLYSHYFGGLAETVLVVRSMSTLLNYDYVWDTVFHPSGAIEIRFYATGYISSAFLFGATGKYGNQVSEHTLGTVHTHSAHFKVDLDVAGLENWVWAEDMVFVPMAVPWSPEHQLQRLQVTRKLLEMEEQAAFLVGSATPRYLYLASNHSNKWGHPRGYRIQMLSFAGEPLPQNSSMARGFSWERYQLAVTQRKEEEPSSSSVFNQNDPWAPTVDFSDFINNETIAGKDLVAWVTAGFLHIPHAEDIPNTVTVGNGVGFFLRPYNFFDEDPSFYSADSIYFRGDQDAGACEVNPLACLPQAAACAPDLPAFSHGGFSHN
UniProt P21397, whole entry: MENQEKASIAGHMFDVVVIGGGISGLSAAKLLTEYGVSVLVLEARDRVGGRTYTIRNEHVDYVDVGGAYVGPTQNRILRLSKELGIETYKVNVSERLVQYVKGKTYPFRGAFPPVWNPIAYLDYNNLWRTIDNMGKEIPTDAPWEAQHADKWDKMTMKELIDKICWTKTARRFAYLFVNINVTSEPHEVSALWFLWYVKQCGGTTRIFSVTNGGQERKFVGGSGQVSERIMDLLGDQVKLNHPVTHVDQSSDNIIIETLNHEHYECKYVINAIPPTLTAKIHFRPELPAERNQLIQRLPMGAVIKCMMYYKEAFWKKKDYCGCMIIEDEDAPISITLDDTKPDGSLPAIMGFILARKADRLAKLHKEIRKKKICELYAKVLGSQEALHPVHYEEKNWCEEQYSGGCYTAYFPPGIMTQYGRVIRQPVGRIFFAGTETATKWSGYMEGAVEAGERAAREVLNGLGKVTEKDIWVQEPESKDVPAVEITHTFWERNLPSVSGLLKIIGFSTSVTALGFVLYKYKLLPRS
UniProt P27338, whole entry: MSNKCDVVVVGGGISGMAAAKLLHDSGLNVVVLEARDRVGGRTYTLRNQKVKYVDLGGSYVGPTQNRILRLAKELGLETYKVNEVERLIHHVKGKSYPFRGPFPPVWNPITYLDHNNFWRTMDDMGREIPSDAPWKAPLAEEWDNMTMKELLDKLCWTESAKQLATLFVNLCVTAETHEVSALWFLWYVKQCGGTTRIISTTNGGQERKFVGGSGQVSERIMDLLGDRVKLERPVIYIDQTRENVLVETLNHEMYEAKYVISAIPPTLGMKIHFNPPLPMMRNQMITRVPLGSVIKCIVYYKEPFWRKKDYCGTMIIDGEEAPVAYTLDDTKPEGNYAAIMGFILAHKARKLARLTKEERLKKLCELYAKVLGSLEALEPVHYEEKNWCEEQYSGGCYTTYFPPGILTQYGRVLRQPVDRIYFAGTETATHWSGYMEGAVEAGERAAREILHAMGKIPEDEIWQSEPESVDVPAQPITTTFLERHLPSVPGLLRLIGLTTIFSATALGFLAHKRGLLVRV

For one assay, the target named is Human SSAO (Homo sapiens, UniProt Q16853). Briefly: In vitro inhibition of SSAO activity, human umbilical cord homogenate, 14C-benzylamine. The conditions noted are these: read-out: Human SSAO IC50, tested form: HCl.
In another assay the target is Recombinant human MAO-A (Homo sapiens, UniProt P21397). Briefly: MAO-A activity, colorimetric method, tyramine substrate. The format is biochemical. The conditions noted are these: tested form: HCl. Here is the method: The specificities of the different SSAO inhibitors was tested by determining their abilities to inhibit MAO-A and MAO-B activities in vitro. Recombinant human MAO-A and human MAO-B enzymes were obtained from BD Biosciences (MA, USA). MAO activity was measured using the colorimetric method essentially as described (Holt, A. et al. (1997) Anal. Biochem. 244: 384). A pre-determined amount of inhibitor diluted in 0.2M potassium phosphate buffer, pH 7.6, was added to each well, if required. The amount of inhibitor varied in each assay but was generally at a final concentration of between 1 nM and 1 mM. Controls lacked inhibitor. The following agents were then added to a final reaction volume of 200 μL in 0.2M potassium phosphate buffer, pH 7.6: 0.04 mg/ml of MAO-A or 0.07 mg/ml MAO-B enzyme, 15 μL of 10 mM tyramine substrate (for MAO-A), or 15 μL 100 mM benzylamine substrate (for MAO-B), and 50 μL of freshly made chromogenic solution. […] The increase in absorbance, reflecting MAO activity, was measured at 490 nm using microplate spectrophotometer (Power Wave 40, Bio-Tek Inst.). Inhibition was presented as percent inhibition compared to control after correcting for background absorbance and IC50 values calculated using GraphPad Prism software. […]

For the next assay, the target named is human MAO-B (Homo sapiens, UniProt P27338). Briefly: MAO-B activity, colorimetric method, benzylamine substrate. The conditions noted are these: tested form: HCl. The format is biochemical.

Regarding `COc1cccc(OC/C=C(/F)CN)c1` [II-19-E, (E)-2-fluoro-4-(3-methoxyphenoxy)but-2-en-1-amine], the concentration for half-maximal inhibition (IC50) (usually the concentration that inhibits the measured activity by half) was 0.75 µM on Human SSAO; > 1000 µM at Recombinant human MAO-A (read-out: Human MAO-A IC50, recombinant human MAO-A); 1000 µM on human MAO-B (read-out: Human MAO-B IC50, recombinant human MAO-B). In addition, the “Specificity of SSAO on MAO-A” value at Recombinant human MAO-A (ratio of IC50 for MAO-A to IC50 for SSAO) is >1333. The “Specificity of SSAO on MAO-B” value at human MAO-B (ratio of IC50 for MAO-B to IC50 for SSAO) came out at 1333.
